Screening data as filed in PubChem BioAssay.
Most compounds without a hit are left out; they make up all but 2.1% or so of the library.
miR-122 sensor – miR-122 Renilla sensor signal increase in Huh7, primary screen, miR-122 inhibitor project, cell-based, single point, plate reader. Huh7 miR-122 Renilla luciferase sensor, 48 h; neutral wells = 0, positive control = 100. activation (reporter increase), % at 12.5 µM. 0.3% of 340,000 active;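 active = mean replicate activation score at least 90 and every replicate individually at or above 90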;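 also: higher luciferase means less miR-122 activity so hits act as miR-122 inhibitors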
Yeast UUG start – alters start codon recognition fidelity in yeast | S. cerevisiae UUG-firefly luciferase reporter, luminescence/redox ratio | activity score, % at 18.7 µM | 350,000 compounds, 0.13% hits | AID 602363;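 active = replicate mean at a twofold rise or more, about +100% in these data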;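 note: firefly luciferase made from a UUG start codon reports start codon fidelity; reporter light over untreated wells divided by growth signal over untreated wells; some hits fall short of that in this replicate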
PGC1a acetyl inh – inhibitors of PGC1a acetylation signal, primary screen, cell-based, U2OS, AlphaScreen, inhibitor mode; AlphaScreen anti-acetyl-lysine; with virally co-expressed GCN5 acetyltransferase; inhibition, % at 15.6 µM; 0.17% of 350,000 active; AID 651687, 2012;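 active = every replicate shows inhibition of at least 40%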
Wnt act – Wnt/beta-catenin pathway activators, primary screen, cell-based, plate reader, single point. Wnt/beta-catenin reporter cell assay, activator. activation, % at 9.35 µM. 1.2% of 300,000 active; in the data active = activation above about 30%, passing the limit was not always enough
MITF TRPM1 inh – inhibitors of MITF-dependent TRPM1 promoter reporter, primary screen, cell-based, SK-MEL-5, single point, luciferase; SK-MEL-5 TRPM1 promoter luciferase, 24 h; inhibition, % at 12.5 µM; 0.83% of 330,000 active;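 active = mean inhibition across replicates of 60% or more, whatever share of single replicates reaches that level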
MITF TRPM1 HTS – activators of MITF-driven TRPM1 promoter reporter, primary screen, cell-based, SK-MEL-5, luciferase, single point | SK-MEL-5 TRPM1-promoter luciferase, 24 h; % of positive control, neutral wells = 0 | activation, % at 12.5 µM | AID 588334, 2011 | 0.75% of 300,000 active;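 active = mean activation of at least 80% with every replicate also reaching 80%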
Hits are given with their value; - = inactive; . = no result given.

SMILES | miR-122 sensor | Yeast UUG start | PGC1a acetyl inh | Wnt act | MITF TRPM1 inh | MITF TRPM1 HTS
C[C@H](CO)N1C[C@H](C)[C@H](CN(C)S(=O)(=O)c2ccc(F)cc2)Oc2c(NC(=O)Nc3ccc4c(c3)OCO4)cccc2C1=O | - | - | - | . | . | .
C[C@@H]1CN([C@H](C)CO)C(=O)Cc2cc(NS(=O)(=O)c3cn(C)cn3)ccc2O[C@H]1CN(C)S(=O)(=O)c1cccs1 | - | - | - | . | . | .
COc1ccc(NC(=O)N(C)C[C@@H]2OCCCC[C@H](C)Oc3ccc(NS(C)(=O)=O)cc3C(=O)N([C@H](C)CO)C[C@@H]2C)cc1 | - | - | - | . | . | .
CN1CCSc2ccc(C(=O)Nc3cc(F)ccc3F)cc21 | - | . | . | 43.0 | - | 96.6
CCOc1ccc(NC(=O)c2ccc3c(c2)N(C)CCS3)cc1 | - | - | . | 37.4 | . | .
CCN1CCSc2ccc(C(=O)Nc3ccc(NC(C)=O)cc3)cc21 | - | - | . | - | - | -
N#CNC(=Nc1ccccc1)SCc1ccc(C(=O)O)cc1 | . | . | - | - | - | -
CSC(=Nc1ccccc1)N=C(SCc1ccccc1)N(C)C | - | . | - | - | 115.8 | .
Cc1cc(C)c(C(CC(=O)c2cccs2)C(C#N)C#N)c(C)c1 (stereo not given) | . | . | . | 49.2 | - | -
Oc1ccccc1-c1nnc(SCCN2CCOCC2)n1Cc1ccccc1 | 240.7 | - | - | - | - | -
O=C(CSc1nnc(-c2ccccc2)n1Cc1ccccc1)N1CCOCC1 | - | - | - | . | - | .
O=C(Cc1ccccn1)N[C@H]1CC[C@H](CCn2cc(-c3ccc(F)cc3)nn2)O[C@@H]1CO | . | . | - | . | . | .
COc1cc(C=NO)nc(-c2ccccn2)c1 | - | . | - | - | 79.2 | .
CCCCC(=O)OCC(=O)C1(O)Cc2c(O)c3c(c(O)c2C(OC2CC(NC(=O)C(F)(F)F)C(O)C(C)O2)C1)C(=O)c1c(OC)cccc1C3=O (stereo not given) | - | . | - | - | 61.4 | .
COc1cccc2c1C(=O)c1c(O)c3c(c(O)c1C2=O)CC(O)(C(C)=O)CC3OC1CC(O)C(O)C(C)O1 (stereo not given) | - | . | - | - | 77.3 | .
COc1cccc2c1C(=O)c1c(O)c3c(c(O)c1C2=O)C[C@](O)(C(C)=O)C[C@H]3O[C@@H]1C[C@@H](N)[C@@H](O)[C@@H](C)O1 | - | - | . | - | 88.2 | -
COc1cccc2c1C(=N)c1c(O)c3c(c(O)c1C2=O)CC(O)(C(C)=O)CC3OC1CC(N)C(O)C(C)O1 (stereo not given) | - | . | - | . | 91.7 | .
C[C@@H]1CN([C@@H](C)CO)C(=O)c2cc(NS(C)(=O)=O)ccc2O[C@@H](C)CCCCO[C@@H]1CN(C)C | - | - | - | . | . | .
CCCN(C)C[C@H]1OCCCC[C@@H](C)Oc2ccc(NC(=O)c3ccccc3)cc2C(=O)N([C@@H](C)CO)C[C@H]1C | - | . | - | . | . | .
NNc1ccc2c(C(F)(F)F)cc(C(F)(F)F)nc2n1 | - | - | - | . | - | -
N#CC(c1cccc(Cl)c1)c1ccc2c(C(F)(F)F)cc(C(F)(F)F)nc2n1 (stereo not given) | - | . | - | . | 74.0 | -
O=C(Nc1ccc(F)cc1)Nc1ccc2c(c1)[C@H]1C[C@@H](CC(=O)N3CCCCC3)O[C@@H](CO)[C@H]1O2 | - | - | - | . | . | .
Cc1ccccc1NC(=O)CC1c2ccccc2CC(C)(C)N1C (stereo not given) | . | . | 82.6 | - | - | -
Cc1cccc(C(=O)OCC(=O)NCc2cccs2)c1 | - | - | - | - | - | -
CS(=O)(=O)c1ccc(C(=O)OCC(=O)NCc2cccs2)cc1[N+](=O)[O-] | - | - | - | - | 85.3 | -
COc1ccc([C@H]2Cc3cc(O)cc(O)c3C(=O)O2)cc1O | - | - | - | 41.1 | - | -
COc1ccc(C(=O)/C=C/N(C)C)cc1 | - | - | - | 65.5 | - | .
CN(C)/C=C/C(=O)c1ccc(Oc2ccccc2)cc1 | - | - | - | - | - | -
C=CCC1(CC=C)CCCN1C(=O)C1CCC(=O)N(CCc2ccccc2)C1 (stereo not given) | - | - | . | - | - | 103.1
